The list shows a part of the results, in another mix than the full data. Some salts and complexes are drawn in separate pieces, as the source files them; their charges need not balance. Active and inactive are the calls of the source. Cut-off read from the data, not from the text of the source: active = inhibition above about 16% (passing the limit was not always enough); inconclusive = no clear call, values can overlap the other calls; inactive = below that.

The assay concerns UDP-N-acetylbacillosamine N-acetyltransferase PglD (Campylobacter jejuni). Briefly: blockers of PglD enzyme activity – biochemical, DTNB colorimetric, single point, primary screen (AID 602405). The note with it: purified PglD enzyme, DTNB colorimetric CoA detection; at 12.5 µM; active compounds read high.
Usually inhibition stands for the relative decrease from the control value, in per cent. In the case of `O=[N+]([O-])c1cc([N+](=O)[O-])c(-c2cnn(-c3ccccc3)c2)c([N+](=O)[O-])c1`, the inhibition was inactive: 3.06%.
To `Cc1nc2ccc3ccccc3c2s1.O=[N+]([O-])c1cc([N+](=O)[O-])c(O)c([N+](=O)[O-])c1` belongs inactive: -7.13%.
In the case of `O=[N+]([O-])c1cc([N+](=O)[O-])c(-n2nnc3ccccc32)c([N+](=O)[O-])c1`, the inhibition was inactive: -13.1%.
In the case of `CN(Cc1cccnc1)C(=O)COc1ccc(Cl)c(Cl)c1.O=[N+]([O-])c1cc([N+](=O)[O-])c(O)c([N+](=O)[O-])c1` it was inactive: -2.5%; in that of `COc1ccccc1OP(C)(=O)Nc1c(C)cccc1C` (stereo not given), inactive: 0.098%; in that of `CCCOc1ccc(NP(C)(=O)Oc2ccc(Cl)cc2)cc1` (stereo not given), inactive: 1.24%.
`O=[N+]([O-])c1cc([N+](=O)[O-])c(Nc2nnnn2CCO)c([N+](=O)[O-])c1`: the inhibition was inactive: -2.48%.
In the case of `CC1=C2N=C(C=C3N=C(C(C)=C4[N-][C@@](C)([C@@H]5N=C1[C@](C)(CCC(=O)NC[C@@H](C)OP(=O)([O-])O[C@H]1[C@@H](O)[C@@H](n6cnc7cc(C)c(C)cc76)O[C@@H]1CO)[C@H]5CC(N)=O)[C@@](C)(CC(N)=O)[C@@H]4CCC(N)=O)[C@@](C)(CC(N)=O)[C@@H]3CCC(N)=O)C(C)(C)[C@@H]2CCC(N)=O.[C-]#N.[Co+3]` it was inactive: -0.95%.
In the case of `CCOC(=O)C(CC)C1=NC(C)(C)Cc2ccccc21.O=[N+]([O-])c1cc([N+](=O)[O-])c(O)c([N+](=O)[O-])c1` (stereo not given) it was inactive: -0.419%; in that of `CC1=NCCc2c1[nH]c1ccccc21.O=[N+]([O-])c1cc([N+](=O)[O-])c(O)c([N+](=O)[O-])c1`, inactive: -1.46%.
To `O=C(O)c1cccc(Nc2c([N+](=O)[O-])cc([N+](=O)[O-])cc2[N+](=O)[O-])c1` belongs inactive: -6.16%; to `Cc1ccc(C)c(NP(C)(=O)Oc2ccccc2)c1` (stereo not given), inactive: 2.33%; to `Cc1cc(C)cc(OP(C)(=O)Nc2ccccn2)c1` (stereo not given), inactive: 1.96%.
On to `COc1ccccc1OP(C)(=O)Nc1cccc(Br)c1` (stereo not given), for which the inhibition is inactive: -0.625%.
In the case of `Cc1cc(C)cc(OP(C)(=O)Nc2ccc(C)cc2C)c1` (stereo not given) it was inactive: 5.25%; in that of `COc1ccccc1OP(C)(=O)Nc1ccc(C)cc1` (stereo not given), inactive: -1.53%; in that of `Cc1ccc(NP(C)(=O)Oc2ccccc2)c(C)c1` (stereo not given), inactive: -0.307%.
To `CCOC(=O)c1ccc(NP(C)(=O)Oc2ccccc2)cc1` (stereo not given) belongs inactive: -2.12%; to `Cc1cc(C)cc(OP(C)(N)=O)c1` (stereo not given), inactive: 1.79%.
In the case of `COc1ccc(OP(C)(=O)Nc2cccc(F)c2)cc1` (stereo not given) it was inactive: -1.67%; in that of `O=[N+]([O-])c1cc([N+](=O)[O-])c(Nc2cccnc2)c([N+](=O)[O-])c1`, inactive: -4.65%; in that of `CP(=S)(Nn1cnnc1)Oc1ccccc1` (stereo not given), inactive: 5.75%.
As for `CCOC(=O)c1ccc(NP(C)(=O)Oc2ccc(OC)cc2)cc1` (stereo not given), the inhibition is inactive: -6.78%.
Regarding `O=[N+]([O-])c1cc([N+](=O)[O-])c(O)c([N+](=O)[O-])c1.c1ccc(Oc2ccncc2)cc1`, the inhibition was inactive: -0.595%.
For `CCOP(C)(=S)SCC(=O)NC(C)C(=O)O` (stereo not given), the inhibition was inactive: 5.01%.
To `CP(=O)(Nc1ccccn1)Oc1ccc(Cl)cc1` (stereo not given) belongs inactive: 3.98%; to `Cc1ccc(Nc2c([N+](=O)[O-])cc([N+](=O)[O-])cc2[N+](=O)[O-])cc1`, inactive: -0.195%.
To `Cc1cccc(C)c1OP(C)(=O)Nc1ccc(SC(F)(F)F)cc1` (stereo not given) belongs inactive: -5.29%.
For `CP(=O)(Nc1ccc(SC(F)(F)F)cc1)Oc1ccc(Cl)cc1` (stereo not given), the inhibition is inactive: 2.35%.
As for `CP(=O)(Oc1ccccc1)OC(c1ccccc1)C(F)(F)F` (stereo not given), the inhibition is inactive: -3.6%.
In the case of `CCc1ccc(OP(C)(=O)N2CCN(c3ccc([N+](=O)[O-])cc3)CC2)cc1` (stereo not given), the inhibition is inactive: -16.7%.
In the case of `CC(C)(C)c1ccc(OP(C)(=O)O)cc1` it was inactive: -0.274%; in that of `COc1ccccc1OP(C)(=O)Nc1ccccc1Br` (stereo not given), inactive: 4.29%.
To `CP(=O)(Nc1ccc(Cl)cc1)Oc1ccc(F)cc1` (stereo not given) belongs inactive: -0.155%; to `CCN(CC)CC(O)COC(=O)C(O)(c1ccccc1)C1CCCCC1` (stereo not given), inactive: 9.43%; to `COc1ccc(OP(C)(=O)Nc2ccc(Br)cc2)cc1` (stereo not given), inactive: -1.52%.
Take `COc1ccccc1OP(C)(=O)Nc1c(C)n(C)n(-c2ccccc2)c1=O` (stereo not given): the inhibition is inactive: -4.92%.
In the case of `O=C(OCCCN1CCCC1)C(O)(c1ccccc1)C1CCCCC1` (stereo not given) it was inactive: -11%.
In the case of `CP(=O)(Oc1ccccc1)N1CCOC1=O` (stereo not given) it was inactive: -0.786%.
In the case of `CCc1ccc(OP(C)(=O)Nc2cccnc2)cc1` (stereo not given) it was inactive: 3.98%; in that of `CCOC(=O)c1ccc(NP(C)(=O)Oc2ccc(Cl)cc2)cc1` (stereo not given), inactive: 8.79%; in that of `CP(=O)(OC12CC3CC(CC(C3)C1)C2)OC12CC3CC(CC(C3)C1)C2`, inactive: 2.13%.
For the compound `CP(=O)(Nc1ccc(Cl)cc1Cl)Oc1ccccc1` (stereo not given), the inhibition is inactive: -2.62%.
`O=C1C(O)=C([N+](=O)[O-])C(=O)C(O)=C1[N+](=O)[O-]`: the inhibition is inactive: 6.17%.
Regarding `O=[N+]([O-])c1cc([N+](=O)[O-])c(Nc2ccccn2)c([N+](=O)[O-])c1`, the inhibition is inactive: -7.6%.
As to `CP(=O)(Nc1ccccn1)Oc1ccccc1` (stereo not given), the inhibition is inactive: 10.4%.
In the case of `COc1ccccc1OP(C)(=O)Nc1ccc(C)cc1C` (stereo not given), the inhibition was inactive: -0.534%.
To `CCc1ccc(OP(C)(=O)O)cc1` belongs inactive: -10.3%; to `COc1ccccc1OP(C)(=O)Nc1ccc(Br)cc1` (stereo not given), inactive: -0.278%.
Regarding `COc1ccc(OP(C)(=O)Nc2ccccn2)cc1` (stereo not given), the inhibition is inactive: 1.31%.
To `CN(C)CCOC(=O)C(O)(c1ccccc1)C1CCCC1` (stereo not given) belongs inactive: 0.356%.
Take `O=C(OCCN1CCN(CCOCc2ccccc2)CC1)C(O)(c1ccccc1)c1ccccc1`: the inhibition is inactive: -3.16%.
To `COc1ccc2c(c1O)-c1c(O)c(OC)cc3c1[C@H](C2)[N+](C)(C)CC3.O=[N+]([O-])c1cc([N+](=O)[O-])c([O-])c([N+](=O)[O-])c1[O-]` belongs inactive: 1.31%; to `O=[N+]([O-])c1cc([N+](=O)[O-])c(Nc2ccc(Cl)cc2)c([N+](=O)[O-])c1`, inactive: 3.13%.
To `CP(=O)(Nc1ccccc1F)Oc1ccccc1` (stereo not given) belongs inactive: 2.23%.
Take `Cc1c([N+](=O)[O-])cc([N+](=O)[O-])c(Br)c1[N+](=O)[O-]`: the inhibition was inactive: -0.667%.
Take `CCN(CC)CCCOC(=O)C(O)(c1ccccc1)C1CCCCC1` (stereo not given): the inhibition was inactive: -1.72%.
On to `CP(=O)(Nc1ccccc1)Oc1ccc(F)cc1` (stereo not given), for which the inhibition was inactive: -2.24%.
In the case of `O=[N+]([O-])c1cc([N+](=O)[O-])c(OC2CCCCC2O)c([N+](=O)[O-])c1` (stereo not given) it was inactive: -4.26%; in that of `CCCCCOc1ccc(NP(C)(=O)Oc2ccc(Cl)cc2Cl)cc1` (stereo not given), inactive: -4.02%.
As to `CCOC(=O)c1ccc(NP(C)(=O)Oc2ccc(F)cc2)cc1` (stereo not given), the inhibition was inactive: 2.37%.
For `O=[N+]([O-])c1ccc(OP2(=O)COCCO2)cc1` (stereo not given), the inhibition was inactive: 1.92%.
As to `Cc1cc(-c2cccc3ccccc23)c(C)cn1.O=[N+]([O-])c1cc([N+](=O)[O-])c(O)c([N+](=O)[O-])c1`, the inhibition is inactive: -1.79%.
For the compound `Cc1c(C(c2ccc3c(c2)OCO3)c2c(C)n(C)n(-c3ccccc3)c2=O)c(=O)n(-c2ccccc2)n1C.O=[N+]([O-])c1cc([N+](=O)[O-])c(O)c([N+](=O)[O-])c1`, the inhibition is inactive: -5.79%.
Turning to `COc1ccc(OP(C)(=O)Nc2cccc(Br)c2)cc1` (stereo not given), the inhibition is inactive: 1.47%.
For `CN(C)CCOC(=O)C(O)(c1ccccc1)C1CCCCC1` (stereo not given), the inhibition was inactive: 3.64%.
`COc1ccc(NP(C)(=O)Oc2ccccc2OC)cc1` (stereo not given): the inhibition is inactive: -0.913%.
On to `CP(=O)(Nc1ccc2c(c1)OCCO2)Oc1ccccc1` (stereo not given), for which the inhibition is inactive: 4.18%.
For `Cc1ccccc1NP(C)(=O)Nc1ccccc1C`, the inhibition was inactive: -1.23%.
In the case of `CCOP(C)(=S)SCC(=O)NC(C)(CC)C(=O)O` (stereo not given) it was inactive: 0.764%.
